These are literature values, as cited in publication PMC7014422.

Broadly, the Kd is the free concentration of one partner at which half of the binding sites on the other are occupied at equilibrium, for simple one-to-one binding.

The target of data set [1] is Connexin 45 CL2 peptide 164-186 (Homo sapiens) (UniProt P36383). The data set is described as follows: fluorescence-labeled CaM.
Data set [2] has as its target Connexin 32 CT1 peptide CT1 (Rattus norvegicus) (UniProt P08033). Description: equilibrium fluorescence.

As for Calmodulin (from UniProt P0DP23), in data set [1], the Kd is 5 nM.

In the case of TA-calmodulin (from UniProt P0DP23), the dissociation constant Kd in data set [2] was 1200 nM.
